In patent US9783495B2, “Treatment for lipodystrophy” (Cadila Healthcare Limited, priority 2011, dated 2017):

Experiment: Solubility of the investigational product
Assay type: physicochemical
Conditions: white, amorphous powder
Experimental: The drug was supplied as uncoated tablets of 4 mg of the active ingredient.

- solubility in dichloromethane: freely soluble
- solubility in dimethyl sulfoxide: freely soluble
- solubility in methanol: slightly soluble
- solubility in water: insoluble
Substance: (S)-α-Ethoxy-4-[2-[-methyl-5-[4-(methylthio)phenyl]-1H-pyrrol-1-yl]ethoxy] benzenepropanoic acid magnesium salt [compound of formula (I)]
